Test results taken from patent publication US8361998B2, “Compounds and their use as IKACh blockers” (AstraZeneca AB, priority 2010, dated 2013).

Sequences of proteins named here, by UniProt entry; tags and fusion partners are left off.
UniProt P48544, whole entry: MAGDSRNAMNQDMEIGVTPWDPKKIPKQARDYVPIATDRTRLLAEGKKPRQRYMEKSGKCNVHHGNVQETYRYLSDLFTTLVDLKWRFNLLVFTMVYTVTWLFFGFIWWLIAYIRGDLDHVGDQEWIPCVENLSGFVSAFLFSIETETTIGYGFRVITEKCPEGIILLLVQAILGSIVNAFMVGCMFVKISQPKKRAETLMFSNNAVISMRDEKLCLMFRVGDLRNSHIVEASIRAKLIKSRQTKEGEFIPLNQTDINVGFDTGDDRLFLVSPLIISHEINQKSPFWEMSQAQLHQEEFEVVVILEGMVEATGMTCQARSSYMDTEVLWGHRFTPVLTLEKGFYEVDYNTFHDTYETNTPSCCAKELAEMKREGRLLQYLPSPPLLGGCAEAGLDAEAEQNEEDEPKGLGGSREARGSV
UniProt P48549, whole entry: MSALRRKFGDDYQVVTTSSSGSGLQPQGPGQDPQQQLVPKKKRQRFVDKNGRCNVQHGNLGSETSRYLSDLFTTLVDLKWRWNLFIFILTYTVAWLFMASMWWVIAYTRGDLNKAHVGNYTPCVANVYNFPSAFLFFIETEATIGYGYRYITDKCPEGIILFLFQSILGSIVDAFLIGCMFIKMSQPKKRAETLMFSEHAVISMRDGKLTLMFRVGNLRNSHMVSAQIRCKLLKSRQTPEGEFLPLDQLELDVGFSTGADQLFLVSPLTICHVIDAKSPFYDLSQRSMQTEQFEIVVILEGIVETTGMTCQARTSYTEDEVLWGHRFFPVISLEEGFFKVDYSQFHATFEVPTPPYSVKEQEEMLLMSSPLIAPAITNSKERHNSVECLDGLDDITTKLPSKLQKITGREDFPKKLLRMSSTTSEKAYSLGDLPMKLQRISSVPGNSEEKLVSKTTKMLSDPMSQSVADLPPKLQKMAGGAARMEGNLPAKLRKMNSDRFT

Target: human cardiac ion channel proteins hKir3.1/Kir3.4 (Homo sapiens, UniProt P48544+P48549)
Test: Atomic Absorption Screening (AAS) Rb efflux assay of hKir3.1/Kir3.4 block, carbachol/high K+ stimulated, 10-pt or 7-pt CR
Settings: read-out: IKACh IC50 10-pt CR, AAS, 10-pt CR (0.003 to 67 μmol/L), CHO-K1 cells expressing hKir3.1/Kir3.4, mean of >4 replicates
Excerpt: Human KCNJ3 encoding Kir3.1 (Genbank acc. No. NM_002239) was inserted between EcoRI and NotI in the pIRESneo3 vector (Clontech Laboratories, Inc. CA, USA). Human KCNJ5 encoding Kir3.4 (Genbank Acc. No. BC069482) was inserted between EcoR1 and Not1 in the pIRESpuro3 vector (Clontech Laboratories, Inc. CA, USA). A Kozak sequence (GCCACC) was introduced before the start codon ATG of both constructs. Chinese Hamster Ovary K1, CHO-FLP/IN, cells (Invitrogen Corporation, Paisley, UK) were transfected simultaneously using Lipofectamine 2000 reagent (Invitrogen Corporation, Paisley, UK). Geneticin 600 μg/mL (Invitrogen Corporation, Paisley, UK) and puromycin 3 μg/mL (BD Bioscience) were added to the cell culture medium 3 days after transfection. Two weeks after transfection, colonies had appeared and were manually picked and sorted to one cell per well in a 96-well plate. Cells were then tested for Kir3.1 and Kir3.4 expression using membrane potential assay, Western Blot and Immunocytochemistry. […] The cell line was re-sorted by flow cytometry and resulting clones were assayed electrophysiologically using IonWorks (Molecular Devices) and later validated on the Q-Patch (Sophion A/S).
The stable cell line was cultured in DMEM/F12 with Glutamax 1 (Invitrogen Corporation, Paisley, UK), supplemented with foetal bovine serum 10%, puromycin 3 μg/mL, hygromycin 300 μg/mL and geneticin 600 μg/mL (Invitrogen Corporation, Paisley, UK). Care was taken not to seed cells at too low density and cells were passaged at approximately 70-80% confluency. Cells used for patch-clamp experiments were prepared by washing using PBS (—Mg, —Ca^2+), 2 times, detached using Accutase (Sigma). For Q-Patch measurements, storage medium was prepared fresh by adding 1.25 mL of 1M Hepes (GibcoBRL) to 50 mL CHO-SFM II medium (GibcoBRL) and detached cells were diluted to 2 million cells/mL in this medium. Frozen (Cryopreserved) cells were used for Atomic Absorption Screening (AAS) and plated poly-D-lysine 384-well plates (Greiner) at a density of 11,000-13,000 cells/well, the day before assay.
The blocking effects of compounds on the human cardiac ion channel proteins hKir3.1/Kir3.4 were assessed in CHO-K1 cells stably expressing the channel proteins using Atomic Absorption Screening (AAS). Cells were washed and then loaded with 25 μL Rb-loading buffer for three hours at 37° C. After that, the cells were washed again and 25 μL of diluted compound was transferred to the cell plate, incubated for 5 min in RT, and then […] of Carbachol/high K+ (10 μM carbachol and 20 mM KCl final concentration) buffer added to stimulate the cells and open the Kir3.1/Kir3.4 channel. After 10 min stimulation, […] of the supernatant was transferred to a new microplate, 45 μL washing buffer added to the supernatant and the level of Rb in the supernatant was then measured using an Aurora ICR 8000. Compounds were studied at concentrations ranging from 0.003 to 67 μmol/L (dilutions by three, 10-pt CR) or from 0.037 to 27 μmol/L (dilutions by three, 7-pt CR).
Stock solutions of compounds were prepared in DMSO 10 mM and stored at RT. Buffers used for AAS contained (in mM): HEPES 20, NaCl 150, MgCl2 1.0, CaCl2 2.0 and NaH2PO4 0.8 and Glucose 10 (wash 1) or KCl 5 and Glucose 5 (wash 2) or KCl 5 (dilution buffer). The High K^+ channel opener buffer contained (in mM): HEPES 20, NaCl 130, MgCl2 1.0, CaCl2 2.0 and NaH2PO4 0.8 together with KCl 20. Solutions used for Q-Patch (extracellular) in mM: NaCl 145, KCl 4, CaCl2 2.0, MgCl2 1.0, HEPES 10 and glucose 10. The high K^+ extra cellular solution used for Q-Patch in mM: NaCl 96.7, KCl 50.7, CaCl2 2.0, MgCl2 1.0, HEPES 10 and glucose 10 while the intra cellular solution used was (in mM): KCl 120, CaCl2 5.374, MgCl2 1.75, EGTA 10, KOH 3.125, HEPES 10, Na2ATP 4.
Results are given as mean IC50 of >4 replicates (10-pt CR, AAS) or >3 replicates (7-pt CR, AAS). Some of the data in Table 1 are mean values of two or more runs. […]

SMILES | IC50 [nM]
CCC[C@@H](CN1CC(O)C1C)N(C)C(=O)c1ccc(Cl)cc1 (single isomer, unassigned) [43.4, isomer 1] | 1700
CCC[C@@H](CN1CC(O)C1C)N(C)C(=O)c1ccc(F)c(F)c1 (single isomer, unassigned) [43.5, isomer 1] | 8400
CCC[C@@H](CN1CC(O)C1C)N(C)C(=O)c1ccc(Cl)cc1 (single isomer, unassigned) [43.1, isomer 1] | 1300
CCC[C@@H](CN1CC(O)C1C)N(C)C(=O)c1ccc(Cl)cc1 (single isomer, unassigned) [43.4, isomer 2] | 720
CCC[C@@H](CN1CC(O)C1C)N(C)C(=O)c1ccc(Cl)cc1 (single isomer, unassigned) [43.1, isomer 2] | 3000
CCC[C@@H](CN1CC(O)C1C)N(C)C(=O)c1ccc(F)cc1 (single isomer, unassigned) [43.6, isomer 1] | 9500
